By UniProt entry, the sequences of proteins in these tests, tags left out. Residues count along the entry.
UniProt Q13224, 27-1484 limits assumed: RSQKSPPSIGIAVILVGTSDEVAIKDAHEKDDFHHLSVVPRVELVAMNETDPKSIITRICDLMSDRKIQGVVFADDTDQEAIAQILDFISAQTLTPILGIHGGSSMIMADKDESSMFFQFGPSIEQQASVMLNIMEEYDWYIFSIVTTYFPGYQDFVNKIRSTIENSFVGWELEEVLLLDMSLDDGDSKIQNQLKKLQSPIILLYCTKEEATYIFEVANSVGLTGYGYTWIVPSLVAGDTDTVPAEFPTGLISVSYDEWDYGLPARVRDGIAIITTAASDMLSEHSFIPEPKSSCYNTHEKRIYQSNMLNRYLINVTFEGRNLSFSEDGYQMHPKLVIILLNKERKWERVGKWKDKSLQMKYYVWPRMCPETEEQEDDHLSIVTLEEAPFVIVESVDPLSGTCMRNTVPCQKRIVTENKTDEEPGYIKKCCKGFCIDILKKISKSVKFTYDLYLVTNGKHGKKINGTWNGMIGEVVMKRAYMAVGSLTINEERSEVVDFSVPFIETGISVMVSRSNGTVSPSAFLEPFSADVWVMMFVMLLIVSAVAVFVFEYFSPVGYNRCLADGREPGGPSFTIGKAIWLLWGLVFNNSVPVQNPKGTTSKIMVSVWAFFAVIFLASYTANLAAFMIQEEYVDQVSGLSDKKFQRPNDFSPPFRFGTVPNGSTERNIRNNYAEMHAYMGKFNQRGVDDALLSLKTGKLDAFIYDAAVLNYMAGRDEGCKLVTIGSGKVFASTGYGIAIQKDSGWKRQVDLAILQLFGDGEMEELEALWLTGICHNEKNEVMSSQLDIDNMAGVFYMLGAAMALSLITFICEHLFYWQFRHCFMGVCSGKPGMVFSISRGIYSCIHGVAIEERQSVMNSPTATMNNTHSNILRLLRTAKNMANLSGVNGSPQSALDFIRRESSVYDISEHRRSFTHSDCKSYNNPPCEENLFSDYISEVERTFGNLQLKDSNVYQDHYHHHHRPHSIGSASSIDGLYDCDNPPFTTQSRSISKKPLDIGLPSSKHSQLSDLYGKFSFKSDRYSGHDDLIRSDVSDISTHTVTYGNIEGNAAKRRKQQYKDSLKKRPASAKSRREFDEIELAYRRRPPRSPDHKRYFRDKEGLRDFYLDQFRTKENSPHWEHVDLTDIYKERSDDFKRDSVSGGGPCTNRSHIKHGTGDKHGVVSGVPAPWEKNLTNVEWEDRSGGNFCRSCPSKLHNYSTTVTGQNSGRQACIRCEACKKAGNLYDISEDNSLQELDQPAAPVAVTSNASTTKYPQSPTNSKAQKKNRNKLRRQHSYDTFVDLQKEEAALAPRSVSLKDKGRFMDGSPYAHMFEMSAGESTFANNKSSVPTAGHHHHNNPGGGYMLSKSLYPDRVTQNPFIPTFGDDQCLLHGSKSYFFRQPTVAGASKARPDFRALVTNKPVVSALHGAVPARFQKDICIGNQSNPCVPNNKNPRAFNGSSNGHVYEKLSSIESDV
UniProt Q5U3Y7, whole entry: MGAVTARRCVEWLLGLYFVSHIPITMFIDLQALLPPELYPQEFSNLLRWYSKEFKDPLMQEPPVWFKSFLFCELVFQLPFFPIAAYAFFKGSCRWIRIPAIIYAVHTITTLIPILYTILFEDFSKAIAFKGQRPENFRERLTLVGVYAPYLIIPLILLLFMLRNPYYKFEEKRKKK

According to EP2246331A1, “NR2B-selective NMDA-receptor antagonists” (Westfälische Wilhelms-Universität Münster, priority 2009, dated 2010):

Experiments:
[1] = target: polyamine binding site of the NR2B subunit of the NMDA receptor (Homo sapiens, UniProt Q05586+Q13224); assay: Filtration-based receptor binding assay with [3H]-Ifenprodil as radioligand; conditions: read-out: affinity to the NR2B binding site of the NMDA receptor; 5 nM [3H]-Ifenprodil; membrane homogenates of mouse L(tk-) cells transfected with NR1-1a/NR2B; 180 min at 37 °C; Ki mean of three experiments ± S.E.M.
σ2 receptor = σ2 receptor (Rattus norvegicus, UniProt Q5U3Y7); assay: Receptor binding assay with [3H]-ditolylguanidine on rat liver membranes; conditions: read-out: affinity to the σ2 receptor, 3 nM [3H]-ditolylguanidine with 2 µM (+)-pentazocine, 180 min at room temperature, mean ± SEM

O=C(CCCN1CCc2cc(O)ccc2C(O)C1)c1ccc(F)cc1 (centres unmarked)
Ki [1]: 47.3 nM | Ki (σ2 receptor): 33.5 nM
